The values below are quoted from earlier work in patent US20100279974A1, “Nucleosides With Non-Natural Bases as Anti-Viral Agents” (priority 2005, published 2010).

For the data set, the system named is HCV. As to conditions: human, in vivo.

Regarding `NC(=O)c1ncn([C@@H]2O[C@H](CO)[C@@H](O)[C@H]2O)n1` [Ribavirin, 1-β-D-ribofuranosyl-1-1,2,4-triazole-3-carboxamide], the toxicity result is given as “known to induce anemia”.
